Outcome and AC50 data for 39 compounds are collected here from PubChem BioAssay (EPA / NIEHS).

Molecules are shown by their SMILES. The entries are a selection whose mix differs from that of the whole data set. Calls of active or inactive are those of the source. How the source made its calls: active means hit-call score of the fitted dose curve at least 0.9, where 1 is the maximum; inactive means score below 0.9.

The test in a line: ATG_PPRE_CIS: Attagene CIS-FACTORIAL HepG2 Assay for human Peroxisome Proliferator-activated Response Element (PPRE) (AID 2282958). The following applies: HepG2 PPRE cis-element reporter, Attagene transcription factor profiling; actives raise or lower the signal.
As for `C#CC(O)C(CC)CCCC` (centres undefined), the result was inactive.
On the same count and under the same terms, as for `C=C(C)C(=O)OCCOCCOCCOC(=O)C(=C)C`, the entry is “inactive”.
On the same count and under the same terms, as for `CCOC(=O)CC(O)(CC(=O)OCC)C(=O)OCC`, the entry is “inactive”; as for `CCCCC(CC)CCC(CC(C)C)OS(=O)(=O)O` (centres undefined), “inactive”.
Still for that read-out and setting: as for `Nc1ccc(S(=O)(=O)Nc2cnc3ccccc3n2)cc1`, the entry is “inactive”; as for `CC(CCO)CC(C)(C)C` (centres undefined), “inactive”.
Turning to `CC(C)OB(OC(C)C)OC(C)C`, the outcome was inactive.
`Fc1ccc(Br)cc1`: the outcome was inactive.
As to `CCCCCCCCCCCCCC(=O)O`, the AC50 was active: 124 µM.
As to `CC(C)C(=O)Nc1ccc([N+](=O)[O-])c(C(F)(F)F)c1`, the AC50 is active: 38.6 µM.
In the case of `Brc1ccc(Br)c(Br)c1`, the compound was classed as inactive.
Consider `CC[N+](CC)(CC(=O)Nc1c(C)cccc1C)Cc1ccccc1`, for which the call was inactive.
Still for that read-out and setting: the result for `CC[C@H]1OC(=O)[C@H](C)[C@@H](O[C@H]2C[C@@](C)(OC)[C@@H](O)[C@H](C)O2)[C@H](C)[C@@H](O[C@@H]2O[C@H](C)C[C@H](N(C)C)[C@H]2O)[C@](C)(O)C[C@@H](C)C(=O)[C@H](C)[C@@H](O)[C@]1(C)O` reads “inactive”; that for `Cc1cc(C2(c3cc(C)c(O)cc3C)OS(=O)(=O)c3ccccc32)c(C)cc1O`, “inactive”; that for `O=C(c1ccccc1)c1ccccc1O`, “inactive”.
On the same count and under the same terms, as for `SCCc1cnccn1`, the entry is “inactive”; as for `C=CCOc1c(Br)cc(Br)cc1Br`, “inactive”; as for `C=CCOCC(O)CO` (centres undefined), “inactive”.
Regarding `O=C(Nc1ccccc1)c1cc(Cl)ccc1O`, the half-maximal activity concentration (AC50) was active: 15.1 µM.
`CC1OC1C1CCC2(C)OC2C1` (centres undefined): the outcome was inactive.
The same measure, in the same setting: as for `Cc1ccc2oc(CN(Cc3ccccc3)C(=O)Nc3c(F)cc(F)cc3F)c(-c3ccc(Cl)cc3)c2c1`, the entry is “inactive”; as for `O=C1c2ccccc2C(=O)c2c(O)ccc(O)c21`, “inactive”; as for `O=[N+]([O-])C1(Br)COCOC1`, “inactive”.
Same read-out and setting: the result for `NC(=O)c1ccc(N)cc1` reads “inactive”; that for `Cc1cccc(C(C)(C)C)c1O`, “inactive”; that for `CC(=O)CCC=C(C)CCC=C(C)C`, “inactive”.
Same read-out and setting: as for `CC1=CC[C@@]23C[C@@H]1C(C)(C)[C@@H]2CC[C@H]3C`, the entry is “inactive”; as for `O=C(Oc1ccccc1)c1ccccc1O`, “inactive”.
Take `CCCCCCCC(=O)O`: the outcome was inactive.
With `CC(C)CCOCc1ccccc1`, the call was inactive.
Take `CC(CO)c1ccccc1` (centres undefined): the result was inactive.
As to `CCCCOCCOCCO`, the result was inactive.
On to `OCCOCCOCCO`, for which the compound was classed as inactive.
Turning to `COC(Cc1ccccc1)OC`, the result was inactive.
Consider `Clc1ccc(Sc2cc(Cl)c(Cl)cc2Cl)cc1`, for which the compound was classed as inactive.
On the same count and under the same terms, the result for `CCO[Si](CCC#N)(OCC)OCC` reads “inactive”; that for `CCCCC(CC)C(=O)OC(C)C` (centres undefined), “inactive”; that for `COc1ccccc1N=Nc1c(S(=O)(=O)O)cc2cc(S(=O)(=O)O)cc(NC(C)=O)c2c1O`, “inactive”.
Take `c1ccc2sc(SSN3CCOCC3)nc2c1`: the result was inactive.

The AC50 is the concentration giving half of the maximal activity seen.
